The chains behind the UniProt entries cited, without tags or fusion partners. Where a name states a change or a piece, a line headed by the entry shows the natural chain unless it says otherwise.
UniProt Q96S37: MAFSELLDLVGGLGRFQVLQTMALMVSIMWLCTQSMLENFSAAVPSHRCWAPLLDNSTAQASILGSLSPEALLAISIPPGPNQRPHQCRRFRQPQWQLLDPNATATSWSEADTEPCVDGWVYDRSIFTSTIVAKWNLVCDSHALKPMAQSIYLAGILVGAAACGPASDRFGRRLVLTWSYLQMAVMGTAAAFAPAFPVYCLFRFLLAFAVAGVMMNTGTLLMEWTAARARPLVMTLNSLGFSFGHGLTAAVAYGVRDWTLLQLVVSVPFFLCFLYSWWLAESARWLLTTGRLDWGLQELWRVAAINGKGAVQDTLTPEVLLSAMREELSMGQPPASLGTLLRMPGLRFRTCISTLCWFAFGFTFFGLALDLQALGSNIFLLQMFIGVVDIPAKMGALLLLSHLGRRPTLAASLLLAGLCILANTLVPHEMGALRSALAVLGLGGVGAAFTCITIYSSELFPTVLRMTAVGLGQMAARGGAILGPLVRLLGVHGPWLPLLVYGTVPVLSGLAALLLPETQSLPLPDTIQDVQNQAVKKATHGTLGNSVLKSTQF

According to patent US10100016B2, “Condensed ring derivative, and preparation method, intermediate, pharmaceutical composition and use thereof” (SHANGHAI YINGLI PHARMACEUTICAL CO., LTD., priority 2015, dated 2018):

These compounds were tested against hURAT1 (Homo sapiens (Human), UniProt Q96S37) (assay: 14C-uric acid transport inhibition in transfected HEK293/hURAT1 cells). Conditions: 14C-uric acid uptake, 10 mins incubation, read-out: IC50 value against hURAT1.
Assay type: cell-based
Experimental: Human embryonic kidney cells (HEK293) was incubated in DMEM tissue culture medium, at 37° C., under 5% CO2 and 95% air atmosphere. […] Transfected HEK293/hURAT1 cells were used to the test for ^14C-uric acid transport activity.
The uric acid [8-14C] […] The incubating solution was removed after 10 mins incubation, followed by adding 100 μL cold washing buffer, after washing with this buffer for 3 times, the buffer was completely removed from the well.

| Compound | IC50 [nM] |
| --- | --- |
| 3-[4-[(4-Cyanonaphthalen-1-yl)thieno[2,3-c]pyridine-2-yl]propionic acid [Compound 37] | 35 |
| O=C(O)CCc1cc2cccc(Cc3c(Cl)cccc3Cl)c2s1 [Compound 35, 3-{7-[(2,6-Dichlorophenyl)methyl]-1-benzothiophene-2-yl}propionic Acid] | 2410 |
| O=C(O)CCc1cc2c(Cc3c(Cl)cccc3Cl)cccc2s1 [Compound 36, 3-{4-[(2,6-Dichlorophenyl)methyl]-1-benzothiophene-2-yl}propionic Acid] | 542 |
| CC(C)(Cc1cc2c(-c3ccc(C#N)cc3)cncc2s1)C(=O)O [Compound 48, 3-[4-(4-Cyanophenyl)thieno[2,3-c]pyridin-2-yl]-2,2-dimethyl propionic Acid] | 12 |

Continued, values first:

| IC50 [nM] | Compound |
| --- | --- |
| 148 | C[C@H](Cc1cc2cncc(-c3ccc(C#N)c4ccccc34)c2s1)C(=O)O (single isomer, unassigned) [Compound 46A] |
| 51 | C[C@@H](Cc1cc2cncc(-c3ccc(C#N)c4ccccc34)c2s1)C(=O)O (single isomer, unassigned) [Compound 46B] |
